Literature values, collected in patent US11026910B2, “α- and γ-truxillic acid derivatives and pharmaceutical compositions thereof” (The Research Foundation for The State University of New York, priority 2012, dated 2021).
pKi: −log10 of the molar value.

By UniProt entry, the sequences of proteins in these tests, tags left out. Residues count along the entry.
UniProt Q01469, 2-135 limits assumed: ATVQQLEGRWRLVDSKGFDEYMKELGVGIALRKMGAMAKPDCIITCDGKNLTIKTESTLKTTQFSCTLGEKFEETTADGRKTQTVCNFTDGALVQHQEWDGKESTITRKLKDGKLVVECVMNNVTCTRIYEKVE

Biological target: FABP5 (Homo sapiens, UniProt Q01469)
Conditions: read-out: Ki against FABP5 (1,8-ANS displacement); McDonnell 2006; target of the acid and keto acid derivatives not given, FABP5 assumed; cited from earlier work

Question: With `O=C(O)C(=O)c1cccc(OCc2ccccc2Cl)c1OCc1ccccc1Cl` as the compound, how does the pKi read?
Answer: > 8.70
